Assay results reported in paper PMC3384419.
Like-named read-outs stand apart in the source and are kept apart here.

Protein sequences, listed by entry. Tags and fused reporters are not part of them. Lines headed by an entry give the natural chain unless they say otherwise; changes in a name come on top.
UniProt P17119: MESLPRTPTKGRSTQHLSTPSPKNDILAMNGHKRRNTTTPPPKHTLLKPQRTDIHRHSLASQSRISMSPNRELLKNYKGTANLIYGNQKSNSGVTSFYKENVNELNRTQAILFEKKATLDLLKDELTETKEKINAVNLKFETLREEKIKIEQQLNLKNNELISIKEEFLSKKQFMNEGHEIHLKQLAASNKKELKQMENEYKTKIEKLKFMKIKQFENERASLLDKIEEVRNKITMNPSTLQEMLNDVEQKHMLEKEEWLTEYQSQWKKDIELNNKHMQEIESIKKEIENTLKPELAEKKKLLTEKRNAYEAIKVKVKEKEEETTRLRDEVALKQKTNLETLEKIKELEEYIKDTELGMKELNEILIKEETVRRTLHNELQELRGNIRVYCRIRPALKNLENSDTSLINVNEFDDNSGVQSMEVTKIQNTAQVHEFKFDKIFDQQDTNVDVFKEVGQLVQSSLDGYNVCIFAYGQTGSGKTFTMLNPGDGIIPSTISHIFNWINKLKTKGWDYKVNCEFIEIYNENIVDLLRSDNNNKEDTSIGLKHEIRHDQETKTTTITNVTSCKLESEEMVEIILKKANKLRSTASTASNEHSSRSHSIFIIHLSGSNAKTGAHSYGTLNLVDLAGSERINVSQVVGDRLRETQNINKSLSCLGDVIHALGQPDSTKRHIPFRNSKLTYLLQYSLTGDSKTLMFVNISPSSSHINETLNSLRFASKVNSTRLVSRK

Columns and labels:
Assay in all cases: co-sedimentation
[1] = target: microtubules (tubulin polymer, αβ-tubulin)
[2] = target: microtubules (tubulin polymer, αβ-tubulin); remark: listed apart in the source
[3] = target: microtubules (tubulin polymer, αβ-tubulin); remark: listed apart in the source
[4] = target: microtubules (tubulin polymer, αβ-tubulin); remark: listed apart in the source

- Kd [1]: 40 nM
- stoichiometry N (αβ-tubulin per Kar3Vik1) [1]: 1
- stoichiometry N (αβ-tubulin per Kar3Vik1) [2]: < 1
- Kd [3]: 360 nM
- stoichiometry N (αβ-tubulin per Kar3Vik1) [3]: 2
- Kd [4]: 370 nM
- stoichiometry N (αβ-tubulin per Kar3Vik1) [4]: 2
Substance: WT GCN4-Kar3Vik1 (from UniProt P17119 353-729; Q12045 341-647) (complex)
